The values below come from paper PMC4186431 (Pharmacology Research & Perspectives, 2013).

Amino acid sequences for entries named in this document (tags omitted). Residues count along the entry.
UniProt P34969, 1-445 isoform P34969-2: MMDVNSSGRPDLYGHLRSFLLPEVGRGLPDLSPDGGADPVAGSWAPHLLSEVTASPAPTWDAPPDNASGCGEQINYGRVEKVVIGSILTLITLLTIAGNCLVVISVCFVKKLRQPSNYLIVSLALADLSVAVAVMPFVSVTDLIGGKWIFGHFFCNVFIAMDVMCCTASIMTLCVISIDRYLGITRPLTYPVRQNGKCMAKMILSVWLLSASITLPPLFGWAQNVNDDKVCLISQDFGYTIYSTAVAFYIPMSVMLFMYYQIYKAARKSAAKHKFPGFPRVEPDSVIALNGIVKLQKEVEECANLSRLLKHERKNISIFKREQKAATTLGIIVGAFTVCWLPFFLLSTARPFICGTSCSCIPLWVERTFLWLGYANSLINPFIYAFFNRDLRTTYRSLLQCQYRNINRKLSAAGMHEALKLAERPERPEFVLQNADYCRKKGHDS

For experiment [1], the target named is T1, human 5-HT7(a) receptor (Homo sapiens, UniProt P34969). In words: cAMP assay, agonist effects in HEK-hu5-HT7 cells. Format: cell-based. Conditions: 100 nmol/L, data not shown. As to the method:
(§1) cAMP levels were quantified using the homogeneous time-resolved fluorescence (HTRF)-based cAMP dynamic kit (Cisbio, Bioassays, Codolet, France). […] In all cases, basal cAMP levels were determined in control wells in the absence of agonist. The effects of the compounds on forskolin-stimulated adenylate cyclase activity were evaluated either at a single concentration (parental HEK293 cells) or by using concentration–response curves (HEK-hu5-HT7 cells). Cells were incubated in the absence (control) or presence of the compounds, at the concentrations indicated, in assay buffer for 15 min at 37°C prior to the addition of forskolin and further incubation for 15 min. Basal cAMP levels were determined in control wells in the absence of forskolin. After proceeding with the subsequent assay steps according to the manufacturer's protocol, the fluorescence emission intensity ratio at 665/620 nm wavelength was measured in an Ultra Evolution 384 microplate reader (TECAN, Männedorf, Switzerland).
A general note: Cyclic AMP is a second messenger, typically raised through Gs and lowered through Gi signalling.

Experiment [2] deals with T1, human 5-HT7(a) receptor. In words: 5-CT-stimulated cAMP assay in the presence of the compounds (antagonist curves, Schild analysis), HEK-hu5-HT7 cells. The settings on record: 5 nmol/L 5-CT. It is filed as cell-based. Here is the method:
as §1, with “forskolin.” for “forskolin. After proceeding with the subsequent assay steps according to the manufacturer's protocol, the fluorescence emission intensity ratio at 665/620 nm wavelength was measured in an Ultra Evolution 384 microplate reader (TECAN, Männedorf, Switzerland).”
The data were analyzed using GraphPad Prism software v4.0 (GraphPad Software Inc., San Diego, CA). Receptor density (Bmax) and the dissociation constant (Kd) of the radioligand were determined by nonlinear regression curve fitting of saturation binding curves to a one-site binding (hyperbola) model. […] The IC50 values were determined by nonlinear regression curve fitting to sigmoidal dose–response or sigmoidal dose–response (variable slope) models, as indicated. […] Results are expressed as the mean values ± SEM from the number of independent experiments indicated.

As to `NCCc1c[nH]c2ccc(C(N)=O)cc12` [5-CT, 5-carboxamidotryptamine, reference compound], the “Increase of cAMP levels above basal levels” value in experiment [1] is reported as “more than 50 times above basal levels”. Moreover, the “cAMP response over basal as percent of the response elicited by 1 μmol/L 5-CT” value in experiment [2] was 44.3 ± 1.6%.
